From EP4847511A1, “COMPOUND WITH TRICYCLIC STRUCTURE, PHARMACEUTICAL COMPOSITION THEREOF AND USE THEREOF” (dated 2026)

Sequences of proteins named here, by UniProt entry; tags and fusion partners are left off. A change or cut given only in a name is not applied to a line headed by its entry.
UniProt P42336, whole entry: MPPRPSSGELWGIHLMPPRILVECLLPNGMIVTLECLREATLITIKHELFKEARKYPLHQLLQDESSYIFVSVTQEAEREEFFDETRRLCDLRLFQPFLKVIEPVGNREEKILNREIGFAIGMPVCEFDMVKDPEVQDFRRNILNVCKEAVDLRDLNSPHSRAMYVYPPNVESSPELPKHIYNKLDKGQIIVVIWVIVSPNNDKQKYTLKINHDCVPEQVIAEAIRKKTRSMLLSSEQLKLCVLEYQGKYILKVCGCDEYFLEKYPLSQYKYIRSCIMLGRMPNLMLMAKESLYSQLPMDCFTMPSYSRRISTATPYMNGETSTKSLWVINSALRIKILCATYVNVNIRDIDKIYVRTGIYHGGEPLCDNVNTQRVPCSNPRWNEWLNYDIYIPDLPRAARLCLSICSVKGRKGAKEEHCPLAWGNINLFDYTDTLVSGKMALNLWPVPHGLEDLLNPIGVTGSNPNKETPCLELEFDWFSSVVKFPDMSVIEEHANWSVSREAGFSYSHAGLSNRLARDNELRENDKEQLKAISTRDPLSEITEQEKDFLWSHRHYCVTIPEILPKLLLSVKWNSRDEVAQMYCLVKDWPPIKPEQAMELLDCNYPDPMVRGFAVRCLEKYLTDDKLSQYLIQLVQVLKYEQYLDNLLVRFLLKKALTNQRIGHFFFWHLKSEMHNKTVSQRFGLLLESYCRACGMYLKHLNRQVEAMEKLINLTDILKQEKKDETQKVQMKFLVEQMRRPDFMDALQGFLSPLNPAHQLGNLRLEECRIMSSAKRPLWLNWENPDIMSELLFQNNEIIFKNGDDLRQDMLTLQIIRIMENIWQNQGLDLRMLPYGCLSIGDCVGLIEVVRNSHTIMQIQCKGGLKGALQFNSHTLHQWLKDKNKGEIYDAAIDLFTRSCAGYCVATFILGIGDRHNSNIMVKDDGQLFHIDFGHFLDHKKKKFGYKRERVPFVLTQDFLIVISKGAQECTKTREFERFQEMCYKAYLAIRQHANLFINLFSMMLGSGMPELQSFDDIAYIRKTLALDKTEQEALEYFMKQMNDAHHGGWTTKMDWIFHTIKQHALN
UniProt P42336, whole entry H1047R: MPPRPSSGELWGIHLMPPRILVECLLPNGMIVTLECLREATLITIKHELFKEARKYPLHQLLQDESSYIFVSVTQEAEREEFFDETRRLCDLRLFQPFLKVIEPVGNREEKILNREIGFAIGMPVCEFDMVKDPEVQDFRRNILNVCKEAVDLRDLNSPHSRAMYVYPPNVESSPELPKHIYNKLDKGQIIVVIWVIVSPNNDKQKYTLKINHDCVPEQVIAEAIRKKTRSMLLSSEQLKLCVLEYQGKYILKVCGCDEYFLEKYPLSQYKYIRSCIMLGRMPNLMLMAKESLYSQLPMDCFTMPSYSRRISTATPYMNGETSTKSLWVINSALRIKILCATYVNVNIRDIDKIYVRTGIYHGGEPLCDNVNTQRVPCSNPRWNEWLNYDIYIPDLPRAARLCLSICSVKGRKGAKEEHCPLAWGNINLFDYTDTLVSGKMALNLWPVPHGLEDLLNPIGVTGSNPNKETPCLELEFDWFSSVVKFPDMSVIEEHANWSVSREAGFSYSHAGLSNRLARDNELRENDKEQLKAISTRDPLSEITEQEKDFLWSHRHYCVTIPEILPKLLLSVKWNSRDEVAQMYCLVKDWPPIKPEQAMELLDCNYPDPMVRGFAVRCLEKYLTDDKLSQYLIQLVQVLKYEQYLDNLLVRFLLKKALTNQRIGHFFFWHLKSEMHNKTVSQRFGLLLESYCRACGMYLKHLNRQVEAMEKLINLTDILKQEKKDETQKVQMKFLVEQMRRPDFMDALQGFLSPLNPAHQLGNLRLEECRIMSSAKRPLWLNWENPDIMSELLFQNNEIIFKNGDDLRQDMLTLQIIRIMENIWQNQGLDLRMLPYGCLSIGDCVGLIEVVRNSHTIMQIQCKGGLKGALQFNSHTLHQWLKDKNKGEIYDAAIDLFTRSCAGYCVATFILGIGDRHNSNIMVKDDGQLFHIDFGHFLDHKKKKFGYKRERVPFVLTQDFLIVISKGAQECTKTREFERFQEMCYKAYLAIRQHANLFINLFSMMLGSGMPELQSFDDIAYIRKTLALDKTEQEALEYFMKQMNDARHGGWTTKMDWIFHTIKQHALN
UniProt P27986, whole entry partner: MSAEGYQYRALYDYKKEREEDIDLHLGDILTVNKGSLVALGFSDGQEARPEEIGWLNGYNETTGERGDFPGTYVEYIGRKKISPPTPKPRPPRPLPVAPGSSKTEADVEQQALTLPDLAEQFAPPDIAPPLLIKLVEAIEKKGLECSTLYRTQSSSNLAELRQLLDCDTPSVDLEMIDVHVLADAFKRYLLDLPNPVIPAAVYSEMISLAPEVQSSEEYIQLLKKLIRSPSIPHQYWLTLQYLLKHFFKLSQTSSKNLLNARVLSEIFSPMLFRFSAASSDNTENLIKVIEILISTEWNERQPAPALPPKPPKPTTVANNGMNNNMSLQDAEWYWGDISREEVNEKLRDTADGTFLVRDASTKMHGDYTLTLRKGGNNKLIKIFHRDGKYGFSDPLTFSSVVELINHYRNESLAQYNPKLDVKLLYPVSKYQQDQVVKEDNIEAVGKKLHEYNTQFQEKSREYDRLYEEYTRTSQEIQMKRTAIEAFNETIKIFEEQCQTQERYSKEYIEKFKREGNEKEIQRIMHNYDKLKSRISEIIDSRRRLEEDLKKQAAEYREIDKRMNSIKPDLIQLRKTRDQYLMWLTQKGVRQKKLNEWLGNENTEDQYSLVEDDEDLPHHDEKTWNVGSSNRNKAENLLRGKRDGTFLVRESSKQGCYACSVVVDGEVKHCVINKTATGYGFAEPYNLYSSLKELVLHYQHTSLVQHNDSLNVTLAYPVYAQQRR

Legend:
PI3Kα = PI3Kα (Homo sapiens, UniProt P42336); assay: ADP-Glo Kinase Assay, enzyme activity inhibition of PI3Kα; conditions: read-out: PI3Kα IC50, ATP 25µM, PIP2 50µg/mL, kinase PI3Kα 0.15µg/mL, room temperature 1 hour
Description: (§1) Effect Example IC50 of PI3Kα and PI3KαH1047R enzyme activity inhibition evaluation assay
(§2) The ADP-Glo Kinase Assay Kit was used for the experiments. The following buffer solutions were prepared: 50 mM HEPES, pH 7.5, 3 mM MgCl2, 1 mM EGTA, 100 mM NaCl, 0.03% CHAPS, 2 mM DTT. The tested compound samples were dissolved in DMSO and added to the screening system at a certain starting concentration of, for example, 10 µM, diluted 3-fold, while setting a DMSO control and an unkinase control. The optimal concentrations of PI3Kα, PI3Kα H1047R, substrate (PIP2) and ATP were prepared with buffers. The enzyme reaction system included: buffer, ATP 25µM, kinase substrate (PIP2, 50µg/mL), kinase PI3Kα (0.15µg/mL), PI3Kδ H1047R (0.05µg/mL), etc. The reaction system was reacted at room temperature for 1 hour, then terminated by adding a terminal reagent (ADP-Glo reagent, 5µL), and the ADP content in the system was detected using a detection reagent (Kinase Detection Reagent, 10µL). Signal data was collected using the Envision instrument. Calculated the % inhibition according to the following formula: % inhibition = (DMSO control signal value - sample signal value)/ (DMSO control signal value - unkinase control signal value). Inhibition curves were plotted using the formula Y=Bottom + (Top-Bottom)/(1+(IC50/X)^HillSlope) to obtain IC50 values and the results are as shown in Table 1.
(§3) Result + represents IC50 <= 250nM ++ represents 250 nM < IC50 < = 10µM +++ represents IC50 > 10 µM Table 1

PI3Kα H1047R = PI3Kα H1047R (Homo sapiens, UniProt P42336, H1047R); assay: ADP-Glo Kinase Assay, enzyme activity inhibition of PI3Kα H1047R; conditions: read-out: PI3KαH1047R IC50, ATP 25µM, PIP2 50µg/mL, kinase 0.05µg/mL, room temperature 1 hour
Description: as §1, §2, §3

Row | Structure (SMILES) | IC50 (PI3Kα) [nM] | IC50 (PI3Kα H1047R) [nM]
1 | Cc1c(C(=O)Nc2cc(Br)c3c4c2C(c2cc(F)ccc2Cl)NC(=O)N4CC3)oc2c(F)cc(F)cc12 (stereo not drawn) | 250 to 10000 | 250 to 10000
2 | Cc1cc(F)cc(C2NC(=O)c3c4c2c(NC(=O)c2cc(F)cc(C(F)(F)F)c2)ccc4nn3C)c1Cl (stereo not drawn) | 250 to 10000 | < 250
3 | Cn1nc2c(-c3ccc4[nH]nc(F)c4c3C#N)cc(NC(=O)c3cc(F)cc(C(F)(F)F)c3)c3c2c1C(=O)NC3c1cc(F)ccc1Cl (stereo not drawn) | 250 to 10000 | < 250
4 | Cn1nc2c(-c3ccc4[nH]ncc4c3F)cc(NC(=O)c3cc(F)cc(C(F)(F)F)c3)c3c2c1C(=O)NC3c1cc(F)ccc1Cl (stereo not drawn) | 250 to 10000 | < 250
5 | Cn1nc2c(-c3ccc4ncnn4c3F)cc(NC(=O)c3cc(F)cc(C(F)(F)F)c3)c3c2c1C(=O)NC3c1cc(F)ccc1Cl (stereo not drawn) | 250 to 10000 | < 250
6 | Cn1nc2c(-c3ccc4ncnn4c3N)cc(NC(=O)c3cc(F)cc(C(F)(F)F)c3)c3c2c1C(=O)NC3c1cc(F)ccc1Cl (stereo not drawn) | > 10000 | < 250
7 | Cn1nc2c(F)cc(NC(=O)c3cc(F)cc(C(F)(F)F)c3)c3c2c1C(=O)NC3c1cc(F)ccc1Cl (stereo not drawn) | 250 to 10000 | < 250
8 | Cn1nc2c(NC3(C#N)CC3)cc(NC(=O)c3cc(F)cc(C(F)(F)F)c3)c3c2c1C(=O)NC3c1cc(F)ccc1Cl (stereo not drawn) | 250 to 10000 | 250 to 10000
9 | Cn1nc2ccc(NC(=O)c3cc(F)cc(C(F)(F)F)c3)c3c2c1C(=O)NC3c1c(Cl)ccc(F)c1F (stereo not drawn) | 250 to 10000 | < 250
10 | Cn1nc2ccc(NC(=O)c3cc(F)cc(C(F)(F)F)c3)c3c2c1C(=O)NC3c1cc(F)c(Cl)cc1Cl (stereo not drawn) | 250 to 10000 | 
11 | Cn1nc2ccc(NC(=O)c3cc(F)cc(C(F)(F)F)c3)c3c2c1C(=O)NC3c1cc(F)c(F)cc1Cl (stereo not drawn) | 250 to 10000 | < 250
12 | N#Cc1c(-c2cc(NC(=O)c3cc(F)cc(C(F)(F)F)c3)c3c4c2CCN4C(=O)NC3c2cc(F)ccc2Cl)cc(N[C@@H](CS)C(=O)O)c2ncnn12 (stereo partly drawn) | 250 to 10000 | < 250
13 | N#Cc1c(-c2cc(NC(=O)c3cc(F)cc(C(F)(F)F)c3)c3c4c2CCN4C(=O)NC3c2cc(F)ccc2Cl)cnc2[nH]cnc12 (stereo not drawn) | 250 to 10000 | < 250
14 | N#Cc1c(-c2cc(NC(=O)c3cc(F)cc(C(F)(F)F)c3)c3c4c2CCN4C(=O)NC3c2cc(F)ccc2Cl)cnc2[nH]ncc12 (stereo not drawn) | 250 to 10000 | < 250
15 | N#Cc1cccc2[nH]nc(-c3cc(NC(=O)c4cc(F)cc(C(F)(F)F)c4)c4c5c3CCN5C(=O)NC4c3cc(F)ccc3Cl)c12 (stereo not drawn) | 250 to 10000 | 250 to 10000
16 | N#Cc1n[nH]c2ccc(-c3cc(NC(=O)c4cc(F)cc(C(F)(F)F)c4)c4c5c3CCN5C(=O)NC4c3cc(F)ccc3Cl)cc12 (stereo not drawn) | > 10000 | 250 to 10000
17 | Nc1c(F)c(NC(=O)c2cc(F)cc(C(F)(F)F)c2)c2c3c1CCN3C(=O)NC2c1cc(Cl)ccc1Cl (stereo not drawn) | 250 to 10000 | < 250
18 | Nc1nc2ccc(-c3cc(NC(=O)c4cc(F)cc(C(F)(F)F)c4)c4c5c3CCN5C(=O)NC4c3cc(F)ccc3Cl)c(Br)n2n1 (stereo not drawn) | 250 to 10000 | < 250
19 | O=C(Nc1cc(-c2cnc3[nH]ncc3c2Cl)c2c3c1C(c1cc(F)ccc1Cl)NC(=O)N3CC2)c1cc(F)cc(C(F)(F)F)c1 (stereo not drawn) | 250 to 10000 | 250 to 10000
20 | O=C(Nc1cc(N2CCn3c(nnc3C(F)(F)F)C2)c2c3c1C(c1cc(F)ccc1Cl)NC(=O)N3CC2)c1cc(F)cc(C(F)(F)F)c1 (stereo not drawn) | > 10000 | 250 to 10000

Row | Structure (SMILES) | IC50 (PI3Kα) [nM] | IC50 (PI3Kα H1047R) [nM]
21 | COc1cc(-c2cc(NC(=O)c3cc(F)cc(C(F)(F)F)c3)c3c4c2CCN4C(=O)NC3c2cc(F)ccc2Cl)c(C#N)n2ncnc12 (racemic) | 250 to 10000 | < 250
22 | Cn1nc2c(-c3ccc4ncnn4c3C#N)cc(NC(=O)c3cc(F)cc(C(F)(F)F)c3)c3c2c1C(=O)NC3c1cc(Cl)c(F)cc1Cl (racemic) | 250 to 10000 | < 250
23 | N#Cc1c(-c2cc(NC(=O)c3cc(F)cc(C(F)(F)F)c3)c3c4c2CCN4C(=O)NC3c2cc(F)c(F)cc2Cl)ccc2ncnn12 (racemic) | 250 to 10000 | < 250
24 | N#Cc1c(-c2cc(NC(=O)c3cc(F)cc(C(F)(F)F)c3)c3c4c2CCN4C(=O)NC3c2cc(F)ccc2Cl)cc(N)c2ncnn12 (racemic) | > 10000 | < 250
25 | N#Cc1c(-c2cc(NC(=O)c3cc(F)cc(C(F)(F)F)c3)c3c4c2CCN4C(=O)NC3c2cc(F)ccc2Cl)ccc2nc(N)nn12 (racemic) | 250 to 10000 | < 250
26 | Nc1nc2ccc(-c3cc(NC(=O)c4cc(F)cc(C(F)(F)F)c4)c4c5c3CCN5C(=O)NC4c3cc(F)ccc3Cl)c(F)n2n1 (racemic) | 250 to 10000 | < 250
27 | O=C(Nc1cc(N2CCn3cnnc3C2)c2c3c1C(c1cc(F)ccc1Cl)NC(=O)N3CC2)c1cc(F)cc(C(F)(F)F)c1 (racemic) | > 10000 | 250 to 10000
28 | COc1cc(-c2cc(NC(=O)c3cc(F)cc(C(F)(F)F)c3)c3c4c2CCN4C(=O)NC3c2cc(F)ccc2Cl)c(C#N)n2ncnc12 (single isomer, unassigned) | 250 to 10000 | < 250
29 | Cn1nc2c(-c3ccc4ncnn4c3C#N)cc(NC(=O)c3cc(F)cc(C(F)(F)F)c3)c3c2c1C(=O)NC3c1cc(Cl)c(F)cc1Cl (single isomer, unassigned) | 250 to 10000 | < 250
30 | Cn1nc2c(Cl)cc(NC(=O)c3cc(F)cc(C(F)(F)F)c3)c3c2c1C(=O)NC3c1cc(F)ccc1Cl (single isomer, unassigned) | 250 to 10000 | < 250
31 | N#Cc1ncccc1-c1cc(NC(=O)c2cc(F)cc(C(F)(F)F)c2)c2c3c1CCN3C(=O)NC2c1cc(Cl)c(F)cc1Cl (single isomer, unassigned) [Compound 1-p1] | 250 to 10000 | < 250
32 | N#Cc1ncccc1-c1cc(NC(=O)c2cc(F)cc(C(F)(F)F)c2)c2c3c1CCN3C(=O)NC2c1cc(Cl)c(F)cc1Cl (single isomer, unassigned) [Compound 1-p2] | > 10000 | 250 to 10000
33 | N#Cc1c(-c2cc(NC(=O)c3cc(F)cc(C(F)(F)F)c3)c3c4c2CCN4C(=O)NC3c2cc(F)ccc2Cl)cc(N)c2ncnn12 (single isomer, unassigned) [Compound 15-p1] | > 10000 | 250 to 10000
34 | N#Cc1c(-c2cc(NC(=O)c3cc(F)cc(C(F)(F)F)c3)c3c4c2CCN4C(=O)NC3c2cc(F)ccc2Cl)cc(N)c2ncnn12 (single isomer, unassigned) [Compound 15-p2] | 250 to 10000 | < 250
35 | N#Cc1c(-c2cc(NC(=O)c3cc(F)cc(C(F)(F)F)c3)c3c4c2CCN4C(=O)NC3c2cc(F)ccc2Cl)ccc2nc(N)nn12 (single isomer, unassigned) [Compound 20-p1] | 250 to 10000 | < 250
36 | N#Cc1c(-c2cc(NC(=O)c3cc(F)cc(C(F)(F)F)c3)c3c4c2CCN4C(=O)NC3c2cc(F)ccc2Cl)ccc2nc(N)nn12 (single isomer, unassigned) [Compound 20-p2] | > 10000 | 250 to 10000
37 | N#Cc1c(-c2cc(NC(=O)c3cc(F)cc(C(F)(F)F)c3)c3c4c2CCN4C(=O)NC3c2cc(Cl)c(F)cc2Cl)ccc2ncnn12 (single isomer, unassigned) [Compound 23-p1] | > 10000 | 250 to 10000
38 | N#Cc1c(-c2cc(NC(=O)c3cc(F)cc(C(F)(F)F)c3)c3c4c2CCN4C(=O)NC3c2cc(Cl)c(F)cc2Cl)ccc2ncnn12 (single isomer, unassigned) [Compound 23-p2] | 250 to 10000 | < 250
39 | N#Cc1c(-c2cc(NC(=O)c3cc(F)cc(C(F)(F)F)c3)c3c4c2CCN4C(=O)NC3c2cc(F)ccc2Cl)ccc2[nH]ncc12 (single isomer, unassigned) [Compound 28-p1] | > 10000 | 250 to 10000
40 | N#Cc1c(-c2cc(NC(=O)c3cc(F)cc(C(F)(F)F)c3)c3c4c2CCN4C(=O)NC3c2cc(F)ccc2Cl)ccc2[nH]ncc12 (single isomer, unassigned) [Compound 28-p2] | 250 to 10000 | 
